pIC50: −log10 of the molar value.
Columns and labels:
Steroid 21-hydroxylase = Steroid 21-hydroxylase (Homo sapiens, UniProt P08686); assay: Inhibition of C-terminal His-tagged recombinant human CYP21A2deltaH mutant expressed in Escherichia coli DH5alpha assessed as decrease in progesterone hydroxylation preincubated for 3 mins followed by NADPH addition measured after 8 mins in presence of cytochrome p450 reductase by LC-MS/MS method
Homo sapiens = species on record: Homo sapiens; assay: Selectivity ratio of IC50 for C-terminal His-tagged recombinant human CYP21A2deltaH mutant to IC50 for C-terminal His-tagged recombinant human CYP17A1delta19H mutant
clinical = settings: human, in vivo

The chains behind the UniProt entries cited, without tags or fusion partners. Where a name states a change or a piece, a line headed by the entry shows the natural chain unless it says otherwise.
UniProt P08686: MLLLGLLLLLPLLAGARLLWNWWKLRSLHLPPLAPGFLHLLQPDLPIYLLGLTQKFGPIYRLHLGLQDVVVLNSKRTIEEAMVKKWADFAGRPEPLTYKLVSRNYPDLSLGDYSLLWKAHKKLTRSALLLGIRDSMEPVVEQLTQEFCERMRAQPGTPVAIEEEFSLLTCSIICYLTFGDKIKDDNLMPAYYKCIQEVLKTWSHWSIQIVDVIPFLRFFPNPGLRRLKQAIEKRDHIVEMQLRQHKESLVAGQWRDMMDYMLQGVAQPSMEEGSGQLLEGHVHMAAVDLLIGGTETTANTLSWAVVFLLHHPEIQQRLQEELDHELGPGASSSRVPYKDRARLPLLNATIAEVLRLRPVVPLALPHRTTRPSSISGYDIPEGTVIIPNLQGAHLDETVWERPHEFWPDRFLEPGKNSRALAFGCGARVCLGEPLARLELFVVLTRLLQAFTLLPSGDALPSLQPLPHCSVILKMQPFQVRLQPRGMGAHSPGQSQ

Ratio IC50 (Homo sapiens) | Cmax (clinical) [nM] | Compound | pIC50 (Steroid 21-hydroxylase)
– | – | C[C@]12CC[C@H](O)CC1=C(C#N)C[C@@H]1[C@@H]2CC[C@]2(C)C(c3cccnc3)=CC[C@@H]12 | 7.62
6.6 | 90 | C[C@]12CC[C@H](O)CC1=CC[C@@H]1[C@@H]2CC[C@]2(C)C(c3cccnc3)=CC[C@@H]12 [ABIRATERONE] | 7.49
